Reference: article PMC11472320, “Computationally Driven Discovery of a BCR-ABL1 Kinase Inhibitor with Activity in Multidrug-Resistant Chronic Myeloid Leukemia” (Journal of Medicinal Chemistry, 2024)

Protein sequences, listed by entry. Tags and fused reporters are not part of them. Lines headed by an entry give the natural chain unless they say otherwise; changes in a name come on top. Residues count along the entry.
UniProt Q8TD08: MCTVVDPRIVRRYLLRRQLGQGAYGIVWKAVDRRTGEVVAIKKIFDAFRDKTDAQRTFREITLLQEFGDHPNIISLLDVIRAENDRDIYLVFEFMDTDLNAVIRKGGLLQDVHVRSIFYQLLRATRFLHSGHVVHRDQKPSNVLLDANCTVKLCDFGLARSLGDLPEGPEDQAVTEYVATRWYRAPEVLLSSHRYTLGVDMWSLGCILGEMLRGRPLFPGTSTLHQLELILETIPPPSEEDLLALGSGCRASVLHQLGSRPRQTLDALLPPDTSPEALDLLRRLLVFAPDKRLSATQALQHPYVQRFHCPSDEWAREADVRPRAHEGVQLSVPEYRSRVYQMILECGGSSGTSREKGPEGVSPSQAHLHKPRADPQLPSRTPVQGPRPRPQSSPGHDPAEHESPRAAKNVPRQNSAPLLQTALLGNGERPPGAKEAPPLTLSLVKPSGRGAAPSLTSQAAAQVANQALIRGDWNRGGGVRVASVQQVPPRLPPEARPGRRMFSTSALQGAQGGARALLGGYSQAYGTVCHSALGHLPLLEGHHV
UniProt Q9BVS4: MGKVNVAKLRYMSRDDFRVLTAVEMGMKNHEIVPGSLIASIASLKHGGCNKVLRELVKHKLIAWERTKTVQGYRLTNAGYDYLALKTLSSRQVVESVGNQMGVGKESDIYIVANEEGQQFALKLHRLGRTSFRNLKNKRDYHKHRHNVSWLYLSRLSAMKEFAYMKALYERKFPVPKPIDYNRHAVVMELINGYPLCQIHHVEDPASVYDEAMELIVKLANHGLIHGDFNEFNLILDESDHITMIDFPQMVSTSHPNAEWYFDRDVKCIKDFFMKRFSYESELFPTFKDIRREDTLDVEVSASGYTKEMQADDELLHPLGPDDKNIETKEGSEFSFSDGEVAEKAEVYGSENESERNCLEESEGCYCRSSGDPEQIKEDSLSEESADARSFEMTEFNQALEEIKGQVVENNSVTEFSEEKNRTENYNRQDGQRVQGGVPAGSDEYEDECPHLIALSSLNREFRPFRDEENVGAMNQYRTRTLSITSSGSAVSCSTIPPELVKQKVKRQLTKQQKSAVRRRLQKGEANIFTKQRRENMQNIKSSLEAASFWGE
UniProt O15264: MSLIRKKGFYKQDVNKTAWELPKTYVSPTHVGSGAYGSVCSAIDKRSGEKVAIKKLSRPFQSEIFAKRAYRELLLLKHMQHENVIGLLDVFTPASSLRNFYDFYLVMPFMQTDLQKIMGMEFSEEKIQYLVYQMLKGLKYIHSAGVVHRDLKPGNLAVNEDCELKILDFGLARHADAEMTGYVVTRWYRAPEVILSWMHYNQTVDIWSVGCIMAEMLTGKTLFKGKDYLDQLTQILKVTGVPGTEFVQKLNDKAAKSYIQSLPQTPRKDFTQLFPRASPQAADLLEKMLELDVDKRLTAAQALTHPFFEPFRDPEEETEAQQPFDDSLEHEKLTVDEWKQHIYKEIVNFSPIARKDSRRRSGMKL
UniProt P08922, 28-2347: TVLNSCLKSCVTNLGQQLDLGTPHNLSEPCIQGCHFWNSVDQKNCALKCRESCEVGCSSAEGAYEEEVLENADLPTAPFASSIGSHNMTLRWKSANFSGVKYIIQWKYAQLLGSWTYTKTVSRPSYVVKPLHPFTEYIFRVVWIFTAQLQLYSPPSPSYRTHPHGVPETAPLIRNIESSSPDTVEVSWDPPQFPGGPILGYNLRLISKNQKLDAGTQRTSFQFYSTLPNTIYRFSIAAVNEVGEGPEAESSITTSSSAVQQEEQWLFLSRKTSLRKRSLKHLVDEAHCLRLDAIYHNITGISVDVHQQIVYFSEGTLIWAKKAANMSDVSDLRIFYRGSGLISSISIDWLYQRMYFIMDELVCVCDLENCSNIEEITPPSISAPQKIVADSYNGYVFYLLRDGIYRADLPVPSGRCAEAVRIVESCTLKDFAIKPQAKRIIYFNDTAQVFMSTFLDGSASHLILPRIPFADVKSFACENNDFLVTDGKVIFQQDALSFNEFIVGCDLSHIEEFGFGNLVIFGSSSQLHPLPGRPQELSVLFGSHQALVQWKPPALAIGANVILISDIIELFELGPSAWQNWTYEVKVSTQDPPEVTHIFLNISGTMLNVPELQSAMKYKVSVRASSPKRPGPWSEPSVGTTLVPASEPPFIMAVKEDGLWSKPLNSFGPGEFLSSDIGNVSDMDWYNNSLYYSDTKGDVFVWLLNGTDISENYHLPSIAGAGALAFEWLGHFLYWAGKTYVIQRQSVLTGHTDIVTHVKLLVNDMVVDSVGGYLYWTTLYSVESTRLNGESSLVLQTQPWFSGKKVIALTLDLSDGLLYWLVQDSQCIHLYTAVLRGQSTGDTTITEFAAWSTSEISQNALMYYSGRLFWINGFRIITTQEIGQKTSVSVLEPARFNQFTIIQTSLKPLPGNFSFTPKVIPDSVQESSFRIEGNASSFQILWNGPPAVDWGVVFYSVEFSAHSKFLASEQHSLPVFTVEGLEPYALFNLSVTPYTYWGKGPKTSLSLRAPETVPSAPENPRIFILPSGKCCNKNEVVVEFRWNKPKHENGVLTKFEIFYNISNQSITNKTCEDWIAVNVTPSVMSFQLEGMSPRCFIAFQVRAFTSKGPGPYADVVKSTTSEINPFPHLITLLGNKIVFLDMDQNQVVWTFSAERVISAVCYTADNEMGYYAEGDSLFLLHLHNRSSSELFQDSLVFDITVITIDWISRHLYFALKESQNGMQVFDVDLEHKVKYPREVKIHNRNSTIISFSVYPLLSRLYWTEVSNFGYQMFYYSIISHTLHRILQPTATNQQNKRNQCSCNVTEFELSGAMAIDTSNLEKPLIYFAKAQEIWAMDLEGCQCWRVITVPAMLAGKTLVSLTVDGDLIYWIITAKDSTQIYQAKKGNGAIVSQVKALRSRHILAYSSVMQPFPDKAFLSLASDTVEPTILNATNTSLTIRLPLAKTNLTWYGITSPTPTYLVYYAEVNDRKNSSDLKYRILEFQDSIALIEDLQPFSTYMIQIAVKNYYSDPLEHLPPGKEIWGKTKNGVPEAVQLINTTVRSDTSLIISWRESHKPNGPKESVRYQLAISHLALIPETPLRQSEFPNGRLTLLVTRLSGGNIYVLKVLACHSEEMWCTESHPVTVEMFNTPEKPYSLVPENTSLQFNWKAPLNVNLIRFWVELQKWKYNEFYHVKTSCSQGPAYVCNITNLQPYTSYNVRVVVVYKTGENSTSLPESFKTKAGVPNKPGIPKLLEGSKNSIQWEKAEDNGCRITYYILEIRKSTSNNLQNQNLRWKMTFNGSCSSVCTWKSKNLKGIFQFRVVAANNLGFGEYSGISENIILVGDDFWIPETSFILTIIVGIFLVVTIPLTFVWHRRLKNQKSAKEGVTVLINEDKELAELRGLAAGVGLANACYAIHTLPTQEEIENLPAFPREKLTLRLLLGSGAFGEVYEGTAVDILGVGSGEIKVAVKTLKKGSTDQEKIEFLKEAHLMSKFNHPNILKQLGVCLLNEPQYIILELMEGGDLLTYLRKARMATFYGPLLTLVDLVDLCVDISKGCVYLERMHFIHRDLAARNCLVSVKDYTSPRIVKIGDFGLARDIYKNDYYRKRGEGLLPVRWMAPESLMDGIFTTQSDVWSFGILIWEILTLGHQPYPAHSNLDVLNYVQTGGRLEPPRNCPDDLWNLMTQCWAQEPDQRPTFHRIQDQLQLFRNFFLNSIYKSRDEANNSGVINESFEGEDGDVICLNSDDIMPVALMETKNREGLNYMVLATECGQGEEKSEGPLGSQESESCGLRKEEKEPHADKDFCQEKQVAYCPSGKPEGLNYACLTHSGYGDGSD
UniProt Q6P3R8: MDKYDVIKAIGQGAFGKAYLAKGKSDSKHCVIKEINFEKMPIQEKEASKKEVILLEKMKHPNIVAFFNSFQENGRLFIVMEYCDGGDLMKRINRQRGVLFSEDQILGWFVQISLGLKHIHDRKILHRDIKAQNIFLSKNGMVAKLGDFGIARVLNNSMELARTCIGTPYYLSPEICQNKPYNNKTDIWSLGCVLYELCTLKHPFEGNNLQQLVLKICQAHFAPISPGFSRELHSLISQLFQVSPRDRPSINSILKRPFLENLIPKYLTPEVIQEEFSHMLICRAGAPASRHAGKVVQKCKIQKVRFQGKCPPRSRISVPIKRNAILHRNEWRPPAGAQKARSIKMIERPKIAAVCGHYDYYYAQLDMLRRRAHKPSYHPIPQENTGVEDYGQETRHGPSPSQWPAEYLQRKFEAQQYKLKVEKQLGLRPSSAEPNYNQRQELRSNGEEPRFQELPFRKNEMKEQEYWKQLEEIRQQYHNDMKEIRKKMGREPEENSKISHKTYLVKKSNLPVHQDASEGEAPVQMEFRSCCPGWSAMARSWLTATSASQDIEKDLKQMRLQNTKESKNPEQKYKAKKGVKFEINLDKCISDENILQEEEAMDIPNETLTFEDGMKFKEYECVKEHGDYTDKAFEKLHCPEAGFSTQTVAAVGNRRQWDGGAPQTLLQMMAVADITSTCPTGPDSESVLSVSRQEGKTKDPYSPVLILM
UniProt Q9UM73, 19-1620: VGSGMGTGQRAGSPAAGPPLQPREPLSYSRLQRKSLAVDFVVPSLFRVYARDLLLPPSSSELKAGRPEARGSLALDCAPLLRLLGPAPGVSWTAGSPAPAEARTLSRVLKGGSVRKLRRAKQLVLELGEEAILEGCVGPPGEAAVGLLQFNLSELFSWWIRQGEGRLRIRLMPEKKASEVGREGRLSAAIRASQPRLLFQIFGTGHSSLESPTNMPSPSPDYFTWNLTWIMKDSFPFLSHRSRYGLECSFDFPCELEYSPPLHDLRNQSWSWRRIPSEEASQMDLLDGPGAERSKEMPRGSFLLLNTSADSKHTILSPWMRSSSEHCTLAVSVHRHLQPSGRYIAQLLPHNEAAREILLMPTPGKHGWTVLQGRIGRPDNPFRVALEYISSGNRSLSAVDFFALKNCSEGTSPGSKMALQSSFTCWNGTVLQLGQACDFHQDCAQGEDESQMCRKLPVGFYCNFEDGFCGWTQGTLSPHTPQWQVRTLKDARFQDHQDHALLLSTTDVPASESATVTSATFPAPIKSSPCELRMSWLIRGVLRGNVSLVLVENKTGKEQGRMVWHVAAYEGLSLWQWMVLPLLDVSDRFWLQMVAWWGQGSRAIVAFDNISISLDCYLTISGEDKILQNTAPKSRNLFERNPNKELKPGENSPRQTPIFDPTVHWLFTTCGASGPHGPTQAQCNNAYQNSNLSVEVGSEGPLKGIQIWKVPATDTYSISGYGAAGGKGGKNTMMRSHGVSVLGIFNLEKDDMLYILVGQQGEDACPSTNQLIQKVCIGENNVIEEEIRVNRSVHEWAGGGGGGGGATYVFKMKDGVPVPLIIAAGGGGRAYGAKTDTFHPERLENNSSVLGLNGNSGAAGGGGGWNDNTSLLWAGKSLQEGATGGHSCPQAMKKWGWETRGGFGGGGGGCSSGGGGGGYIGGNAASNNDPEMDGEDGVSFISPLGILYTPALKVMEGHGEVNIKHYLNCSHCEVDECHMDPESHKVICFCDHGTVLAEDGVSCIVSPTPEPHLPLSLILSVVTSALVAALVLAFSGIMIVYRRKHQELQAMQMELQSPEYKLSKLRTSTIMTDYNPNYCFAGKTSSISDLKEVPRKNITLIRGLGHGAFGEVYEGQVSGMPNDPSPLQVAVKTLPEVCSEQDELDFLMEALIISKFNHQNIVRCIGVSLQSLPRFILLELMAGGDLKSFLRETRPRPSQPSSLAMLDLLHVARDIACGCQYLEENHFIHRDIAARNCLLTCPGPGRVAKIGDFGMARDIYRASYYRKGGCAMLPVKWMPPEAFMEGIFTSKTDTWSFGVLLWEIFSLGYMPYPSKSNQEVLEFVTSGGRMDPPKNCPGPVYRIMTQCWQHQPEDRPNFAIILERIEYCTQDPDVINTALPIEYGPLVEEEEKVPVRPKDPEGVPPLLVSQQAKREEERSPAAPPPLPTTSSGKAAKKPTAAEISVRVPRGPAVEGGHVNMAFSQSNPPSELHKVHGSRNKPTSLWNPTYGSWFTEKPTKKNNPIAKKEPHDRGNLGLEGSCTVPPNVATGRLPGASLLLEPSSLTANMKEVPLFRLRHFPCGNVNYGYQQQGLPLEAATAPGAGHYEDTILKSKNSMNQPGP
UniProt Q52WX2: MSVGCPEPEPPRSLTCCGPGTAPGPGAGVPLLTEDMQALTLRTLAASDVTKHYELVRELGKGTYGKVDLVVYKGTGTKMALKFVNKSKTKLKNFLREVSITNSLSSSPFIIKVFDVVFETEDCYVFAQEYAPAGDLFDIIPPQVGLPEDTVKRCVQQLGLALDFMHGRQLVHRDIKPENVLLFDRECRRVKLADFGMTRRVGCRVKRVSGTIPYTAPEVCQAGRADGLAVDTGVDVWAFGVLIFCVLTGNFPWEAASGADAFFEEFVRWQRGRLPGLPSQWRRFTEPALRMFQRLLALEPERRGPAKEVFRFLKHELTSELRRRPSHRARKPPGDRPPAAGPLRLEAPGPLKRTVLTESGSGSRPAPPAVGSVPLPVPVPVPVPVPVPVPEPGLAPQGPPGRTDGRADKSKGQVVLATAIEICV

Key:
[1] = biological target: PIP5K1C (Homo sapiens, UniProt O60331); assay: biochemical; details: read-out: Percent Control
[2] = biological target: PIK3CA(E542K) (Homo sapiens, UniProt P42336, E542K); assay: biochemical; details: read-out: Percent Control
[3] = biological target: CAMKK1 (Homo sapiens, UniProt Q8N5S9); assay: biochemical; details: read-out: Percent Control
[4] = biological target: DYRK1B (Homo sapiens, UniProt Q9Y463); assay: biochemical; details: read-out: Percent Control
[5] = biological target: AMPK-alpha2 (Homo sapiens, UniProt P54646); assay: biochemical; details: read-out: Percent Control
[6] = biological target: CAMK2B (Homo sapiens, UniProt Q13554); assay: biochemical; details: read-out: Percent Control
[7] = biological target: CAMKK2 (Homo sapiens, UniProt Q96RR4); assay: biochemical; details: read-out: Percent Control
[8] = biological target: EIF2AK1 (Homo sapiens, UniProt Q9BQI3); assay: biochemical; details: read-out: Percent Control
[9] = biological target: BLK (Homo sapiens, UniProt P51451); assay: biochemical; details: read-out: Percent Control
[10] = biological target: MST1 (Homo sapiens, UniProt Q13043); assay: biochemical; details: read-out: Percent Control
[11] = biological target: FLT3-autoinhibited (Homo sapiens, UniProt P36888); assay: biochemical; details: read-out: Percent Control
[12] = biological target: HPK1 (Homo sapiens, UniProt Q92918); assay: biochemical; details: read-out: Percent Control
[13] = tested on: FLT3(ITD,F691L)
[14] = biological target: PAK3 (Homo sapiens, UniProt O75914); assay: biochemical; details: read-out: Percent Control
[15] = biological target: PHKG2 (Homo sapiens, UniProt P15735); assay: biochemical; details: read-out: Percent Control
[16] = biological target: CDK5 (Homo sapiens, UniProt Q00535); assay: biochemical; details: read-out: Percent Control
[17] = biological target: AKT1 (Homo sapiens, UniProt P31749); assay: biochemical; details: read-out: Percent Control
[18] = biological target: ERK8 (Homo sapiens, UniProt Q8TD08); assay: biochemical; details: read-out: Percent Control
[19] = biological target: CDK3 (Homo sapiens, UniProt Q00526); assay: biochemical; details: read-out: Percent Control
[20] = biological target: DYRK1A (Homo sapiens, UniProt Q13627); assay: biochemical; details: read-out: Percent Control
[21] = biological target: EPHB3 (Homo sapiens, UniProt P54753); assay: biochemical; details: read-out: Percent Control
[22] = biological target: MLK1 (Homo sapiens, UniProt P80192); assay: biochemical; details: read-out: Percent Control
[23] = biological target: PAK4 (Homo sapiens, UniProt O96013); assay: biochemical; details: read-out: Percent Control
[24] = biological target: TSSK1B (Homo sapiens, UniProt Q9BXA7); assay: biochemical; details: read-out: Percent Control
[25] = biological target: RIOK2 (Homo sapiens, UniProt Q9BVS4); assay: biochemical; details: read-out: Percent Control
[26] = biological target: LRRK2(G2019S) (Homo sapiens, UniProt Q5S007, G2019S); assay: biochemical; details: read-out: Percent Control
[27] = biological target: p38-delta (Homo sapiens, UniProt O15264); assay: biochemical; details: read-out: Percent Control
[28] = biological target: TGFBR1 (Homo sapiens, UniProt P36897); assay: biochemical; details: read-out: Percent Control
[29] = biological target: ROS1 (Homo sapiens, UniProt P08922); assay: biochemical; details: read-out: Percent Control
[30] = biological target: SGK3 (Homo sapiens, UniProt Q96BR1); assay: biochemical; details: read-out: Percent Control
[31] = biological target: NEK5 (Homo sapiens, UniProt Q6P3R8); assay: biochemical; details: read-out: Percent Control
[32] = biological target: SRPK2 (Homo sapiens, UniProt P78362); assay: biochemical; details: read-out: Percent Control
[33] = biological target: CSNK2A1 (Homo sapiens, UniProt P68400); assay: biochemical; details: read-out: Percent Control
[34] = biological target: ALK (Homo sapiens, UniProt Q9UM73); assay: biochemical; details: read-out: Percent Control
[35] = biological target: JNK2 (Homo sapiens, UniProt P45984); assay: biochemical; details: read-out: Percent Control
[36] = biological target: ADCK3 (Homo sapiens, UniProt Q8NI60); assay: biochemical; details: read-out: Percent Control
[37] = biological target: PIK4CB (Homo sapiens, UniProt Q9UBF8); assay: biochemical; details: read-out: Percent Control
[38] = biological target: MST1R (Homo sapiens, UniProt Q04912); assay: biochemical; details: read-out: Percent Control
[39] = biological target: EPHA2 (Homo sapiens, UniProt P29317); assay: biochemical; details: read-out: Percent Control
[40] = biological target: PAK7 (Homo sapiens, UniProt Q9P286); assay: biochemical; details: read-out: Percent Control
[41] = biological target: TBK1 (Homo sapiens, UniProt Q9UHD2); assay: biochemical; details: read-out: Percent Control
[42] = biological target: SBK1 (Homo sapiens, UniProt Q52WX2); assay: biochemical; details: read-out: Percent Control
[43] = biological target: MEK2 (Homo sapiens, UniProt P36507); assay: biochemical; details: read-out: Percent Control
[44] = biological target: PIM1 (Homo sapiens, UniProt P11309); assay: biochemical; details: read-out: Percent Control

## COc1cc2c(Nc3ccc(Cl)c(OC)n3)c(C#N)cnc2cc1OCCON1CCN(C)CC1 [16a, 4-((5-Chloro-6-methoxypyridin-2-yl)amino)-6-methoxy-7-(2-((4-methylpiperazin-1-yl)oxy)ethoxy)quinoline-3-carbonitrile]
[1]
  remaining activity at 1 µM: 55%
[2]
  remaining activity at 1 µM: 100%
[3]
  remaining activity at 1 µM: 47%
[4]
  remaining activity at 1 µM: 42%
[5]
  remaining activity at 1 µM: 60%
[6]
  remaining activity at 1 µM: 80%
[7]
  remaining activity at 1 µM: 32%
[8]
  remaining activity at 1 µM: 2.6%
[9]
  remaining activity at 1 µM: 0.2%
[10]
  remaining activity at 1 µM: 20%
[11]
  remaining activity at 1 µM: 100%
[12]
  remaining activity at 1 µM: 0.1%
[13]
  Percent Control: 18
[14]
  remaining activity at 1 µM: 24%
[15]
  remaining activity at 1 µM: 76%
[16]
  remaining activity at 1 µM: 97%
[17]
  remaining activity at 1 µM: 100%
[18]
  remaining activity at 1 µM: 99%
[19]
  remaining activity at 1 µM: 99%
[20]
  remaining activity at 1 µM: 40%
[21]
  remaining activity at 1 µM: 72%
[22]
  remaining activity at 1 µM: 11%
[23]
  remaining activity at 1 µM: 47%
[24]
  remaining activity at 1 µM: 25%
[25]
  remaining activity at 1 µM: 100%
[26]
  remaining activity at 1 µM: 37%
[27]
  remaining activity at 1 µM: 100%
[28]
  remaining activity at 1 µM: 100%
[29]
  remaining activity at 1 µM: 100%
[30]
  remaining activity at 1 µM: 100%
[31]
  remaining activity at 1 µM: 96%
[32]
  remaining activity at 1 µM: 100%
[33]
  remaining activity at 1 µM: 100%
[34]
  remaining activity at 1 µM: 76%
[35]
  remaining activity at 1 µM: 97%
[36]
  remaining activity at 1 µM: 100%
[37]
  remaining activity at 1 µM: 100%
[38]
  remaining activity at 1 µM: 100%
[39]
  remaining activity at 1 µM: 7.1%
[40]
  remaining activity at 1 µM: 39%
[41]
  remaining activity at 1 µM: 30%
[42]
  remaining activity at 1 µM: 86%
[43]
  remaining activity at 1 µM: 0%
[44]
  remaining activity at 1 µM: 91%
